The values that follow come from US20150141489.

This data set deals with recombinant GST-S6.

B1: T7-tagged S6K1 Iso-1 K123A (kinase dead) (protein)
chain: MRRRRRRDGFYPAPDFRDREAEDMAGVFDIDLDQPEDAGSEDELEEGGQLNESMDHGGVGPYELGMEHCEKFEISETSVNRGPEKIRPECFELLRVLGKGGYGKVFQVRKVTGANTGKIFAMAVLKKAMIVRNAKDTAHTKAERNILEEVKHPFIVDLIYAFQTGGKLYLILEYLSGGELFMQLEREGIFMEDTACFYLAEISMALGHLHQKGIIYRDLKPENIMLNHQGHVKLTDFGLCKESIHDGTVTHTFCGTIEYMAPEILMRSGHNRAVDWWSLGALMYDMLTGAPPFTGENRKKTIDKILKCKLNLPPYLTQEARDLLKKLLKRNAASRLGAGPGDAGEVQAHPFFRHINWEELLARKVEPPFKPLLQSEEDVSQFDSKFTRQTPVDSPDDSTLSESANQVFLGFTYVAPSVLESVKEKFSFEPKIRSPRRFIGSPRTPVSPVKFSPGDFWGRGASASTANPQTPVEYPMETSGIEQMDVTMSGEASAPLPIRQPNSGPYKKQAFPMISKRPEHLRMNL
Consider B1, for which the “in vitro kinase assay (phospho-S6 S240-244 blot)” value is reported as “have no kinase activity”.
